From patent US10590075B2, “Cyanopyrrolidine derivatives as inhibitors for DUBs” (Mission Therapeutics Limited, priority 2015, dated 2020)

Chains of the proteins cited; added tags and fusions are not shown.
UniProt Q6GQQ9, whole entry: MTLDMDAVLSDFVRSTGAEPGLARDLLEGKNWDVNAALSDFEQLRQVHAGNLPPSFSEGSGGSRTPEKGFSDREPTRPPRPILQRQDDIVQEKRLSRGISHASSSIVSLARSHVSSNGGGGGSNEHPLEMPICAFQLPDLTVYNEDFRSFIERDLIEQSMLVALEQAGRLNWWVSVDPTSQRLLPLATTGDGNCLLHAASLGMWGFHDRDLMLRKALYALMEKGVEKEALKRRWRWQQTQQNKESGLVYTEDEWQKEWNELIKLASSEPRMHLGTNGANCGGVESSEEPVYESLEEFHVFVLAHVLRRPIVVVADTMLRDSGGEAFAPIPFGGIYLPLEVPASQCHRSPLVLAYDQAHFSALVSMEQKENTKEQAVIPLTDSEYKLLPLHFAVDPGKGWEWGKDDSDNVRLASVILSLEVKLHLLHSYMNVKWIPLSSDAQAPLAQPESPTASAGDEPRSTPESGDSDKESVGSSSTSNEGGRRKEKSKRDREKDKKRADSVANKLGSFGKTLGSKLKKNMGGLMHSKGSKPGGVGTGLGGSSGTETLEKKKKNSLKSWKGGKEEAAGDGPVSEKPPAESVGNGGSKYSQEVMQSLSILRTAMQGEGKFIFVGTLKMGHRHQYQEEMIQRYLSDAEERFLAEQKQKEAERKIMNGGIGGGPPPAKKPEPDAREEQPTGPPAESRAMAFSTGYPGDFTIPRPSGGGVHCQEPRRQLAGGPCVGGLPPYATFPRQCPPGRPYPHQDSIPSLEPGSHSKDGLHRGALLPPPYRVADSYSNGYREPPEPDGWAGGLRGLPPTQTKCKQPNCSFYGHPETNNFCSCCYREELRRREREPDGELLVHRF

Molecular target: Cezanne 1 (Homo sapiens (Human), UniProt Q6GQQ9)
Test: Cezanne 1 biochemical IC50 assay
Conditions: read-out: IC50 range; FLAG-Cezanne 1 purified from HEK293T cells; fluorescence polarisation, TAMRA labelled peptide linked to ubiquitin; 30 min preincubation, 2 hr read
Description: The Cezanne 1 construct was PCR amplified and cloned into a pFLAG-CMV-6c vector (Sigma-Aldrich) with an N-terminal FLAG tag. HEK293T cells were transfected with FLAG-Cezanne 1 using TransIT-LT1 transfection reagent (Mirus) according to the manufacturer's instructions. Cells were harvested 48 hours after transfection. […]
Dilution plates were prepared at 21 times the final concentration (2100 μM for a final concentration of 100 μM) in 50% DMSO in a 96-well polypropylene V-bottom plate (Greiner #651201). […] Reactions were initiated by the addition of 50 nM of TAMRA labelled peptide linked to ubiquitin via an iso-peptide bond as fluorescence polarisation substrate. Reactions were read immediately after addition of substrate and following a 2 hr incubation at room temperature. Readings were performed on a Pherastar Plus (BMG Labtech). λ Excitation 540 nm; λ Emission 590 nm.

**Q.** With `N#CN1CC[C@](F)(C(=O)Nc2ncc(-c3cccc4cn[nH]c34)s2)C1` as the molecule, how does the IC50 read?
**A.** Its IC50 is 100 to 1000 nM.
